Reference: paper PMC10962654 (Journal of Food and Drug Analysis, 2023)
Where two headings read alike, the source gives them in different places.

Details: MI/R rats, plasma, n = 6

- AUC(0-t) (GHI-H (GHI 10 mL/kg, i.v.)): 778.474 ± 381.478 ng·h/mL
- CL1 (GHI-H (GHI 10 mL/kg, i.v.)): 74.68 ± 4.42 mL/min/kg
- CL2 (GHI-H (GHI 10 mL/kg, i.v.)): 141.4 ± 10.2 mL/min/kg
- K10 (GHI-H (GHI 10 mL/kg, i.v.)): 9.381 ± 1.601 h⁻¹
- K12 (GHI-H (GHI 10 mL/kg, i.v.)): 17.849 ± 3.532 h⁻¹
- K21 (GHI-H (GHI 10 mL/kg, i.v.)): 6.923 ± 0.999 h⁻¹
- Q (GHI-H (GHI 10 mL/kg, i.v.)): 141.4 ± 10.2 mL/min/kg
- V1 (GHI-H (GHI 10 mL/kg, i.v.)): 0.49 ± 0.094 L/kg
- V2 (GHI-H (GHI 10 mL/kg, i.v.)): 1.244 ± 0.167 L/kg
- t1/2α (GHI-H (GHI 10 mL/kg, i.v.)): 1.32 ± 0.24 min
- t1/2β (GHI-H (GHI 10 mL/kg, i.v.)): 20.9 ± 2.82 min
- AUC(0-t) (GHI-L (GHI 2.5 mL/kg, i.v.)): 163.614 ± 83.456 ng·h/mL
- CL1 (GHI-L (GHI 2.5 mL/kg, i.v.)): 85.97 ± 4.43 mL/min/kg
- CL2 (GHI-L (GHI 2.5 mL/kg, i.v.)): 155.2 ± 42.88 mL/min/kg
- K10 (GHI-L (GHI 2.5 mL/kg, i.v.)): 10.77 ± 4.722 h⁻¹
- K12 (GHI-L (GHI 2.5 mL/kg, i.v.)): 19.134 ± 9.171 h⁻¹
- K21 (GHI-L (GHI 2.5 mL/kg, i.v.)): 3.903 ± 1.019 h⁻¹
- Q (GHI-L (GHI 2.5 mL/kg, i.v.)): 155.2 ± 42.83 mL/min/kg
- V1 (GHI-L (GHI 2.5 mL/kg, i.v.)): 0.546 ± 0.192 L/kg
- V2 (GHI-L (GHI 2.5 mL/kg, i.v.)): 2.437 ± 0.538 L/kg
- t1/2α (GHI-L (GHI 2.5 mL/kg, i.v.)): 1.44 ± 0.48 min
- t1/2β (GHI-L (GHI 2.5 mL/kg, i.v.)): 33.8 ± 6.96 min
- AUC(0-t) (GHI-M (GHI 5 mL/kg, i.v.)): 211.446 ± 86.297 ng·h/mL
- CL1 (GHI-M (GHI 5 mL/kg, i.v.)): 68.9 ± 5.63 mL/min/kg
- CL2 (GHI-M (GHI 5 mL/kg, i.v.)): 81.98 ± 19.82 mL/min/kg
- K10 (GHI-M (GHI 5 mL/kg, i.v.)): 7.644 ± 2.745 h⁻¹
- K12 (GHI-M (GHI 5 mL/kg, i.v.)): 9.432 ± 4.449 h⁻¹
- K21 (GHI-M (GHI 5 mL/kg, i.v.)): 3.686 ± 2.064 h⁻¹
- Q (GHI-M (GHI 5 mL/kg, i.v.)): 81.98 ± 19.83 mL/min/kg
- V1 (GHI-M (GHI 5 mL/kg, i.v.)): 0.603 ± 0.211 L/kg
- V2 (GHI-M (GHI 5 mL/kg, i.v.)): 1.669 ± 0.725 L/kg
- t1/2α (GHI-M (GHI 5 mL/kg, i.v.)): 2.7 ± 1.5 min
- t1/2β (GHI-M (GHI 5 mL/kg, i.v.)): 37.3 ± 21.1 min
Substance: kaempferol-3-O-rutinoside
